Data from patent publication US20260263614A1, “ANTIBODY DRUG CONJUGATES THAT BIND CDCP1 AND USES THEREOF” (Pheon Therapeutics Ltd, priority 2022, published 2026).

Assay: S9 liver studies, summary for human and monkey
Conditions: DAR8 ADCs on a Trastuzumab backbone

Trastuzumab-DM1
Detected Metabolites in Liver Microsome S9 Studies: DM1
